Target: T1, Heme oxygenase 1 (Rattus norvegicus, UniProt P06762)
T1 sequence (P06762 whole entry): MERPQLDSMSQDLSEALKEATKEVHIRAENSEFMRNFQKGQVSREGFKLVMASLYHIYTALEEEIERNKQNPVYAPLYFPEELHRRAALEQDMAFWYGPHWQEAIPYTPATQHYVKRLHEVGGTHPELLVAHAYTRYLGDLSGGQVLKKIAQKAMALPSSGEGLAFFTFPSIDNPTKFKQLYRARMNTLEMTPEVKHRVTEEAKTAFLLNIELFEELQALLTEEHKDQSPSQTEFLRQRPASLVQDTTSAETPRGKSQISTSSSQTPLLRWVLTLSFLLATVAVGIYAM
Test: Inhibition of Sprague-Dawley rat spleen microsome HO-1 preincubated for 10 mins followed by beta-NADPH addition and measured after 15 mins by gas chromatography
Type: microsomes

IC50: 1500 nM
Compound: O=C(CCc1ccccc1)Cn1ccnc1

Source: ChEMBL document CHEMBL4402532, “Heme Oxygenase-2 (HO-2) as a therapeutic target: Activators and inhibitors” (Eur J Med Chem, 2019)
